# Results from PubChem BioAssay AID493162 (ICCB-Longwood Screening Facility, Harvard Medical School, 2011).
# The entries are a selection whose mix differs from that of the whole data set. Some results for these compounds are left out of this collection, so the calls shown say nothing about other tests. Activity calls are given as the source filed them. Rule as the data show it: active = normalized absorbance mostly below about 85% (no sharp cut-off); inactive = mostly above about 86%.
# Tested on: Vaccinia virus DNA polymerase (E9) processive complex
# Test: vaccinia E9 polymerase processive synthesis inhibitors, primary screen, biochemical, absorbance (AID 493162)
# Details: in vitro processive DNA synthesis, absorbance read-out; active compounds read low; concentration not given here
row,SMILES,normalized absorbance
1,O=C(OC1CN2CCC1CC2)C(CO)(c1ccccc1)c1ccccc1 (stereo unspecified),inactive: 94.9%
